Columns and labels:
Homo sapiens [1] = species on record: Homo sapiens; assay: Selectivity ratio of IC50 for PI3Kgamma (unknown origin) to IC50 for human mTOR
Homo sapiens [2] = species on record: Homo sapiens; assay: Selectivity ratio of IC50 for human RET to IC50 for human mTOR
Homo sapiens [3] = species on record: Homo sapiens; assay: Selectivity ratio of IC50 for human KIT to IC50 for human mTOR
Homo sapiens [4] = species on record: Homo sapiens; assay: Selectivity ratio of IC50 for human ABL to IC50 for human mTOR
Homo sapiens [5] = species on record: Homo sapiens; assay: Selectivity ratio of IC50 for human DNA-PK to IC50 for human mTOR
Homo sapiens [6] = species on record: Homo sapiens; assay: Selectivity ratio of IC50 for human SRC to IC50 for human mTOR
Homo sapiens [7] = species on record: Homo sapiens; assay: Selectivity ratio of IC50 for PI3Kdelta (unknown origin) to IC50 for human mTOR
Homo sapiens [8] = species on record: Homo sapiens; assay: Selectivity ratio of IC50 for human BLK to IC50 for human mTOR
Homo sapiens [9] = species on record: Homo sapiens; assay: Selectivity ratio of IC50 for PI3Kbeta (unknown origin) to IC50 for human mTOR
Homo sapiens [10] = species on record: Homo sapiens; assay: Selectivity ratio of IC50 for PI3Kalpha (unknown origin) to IC50 for human mTOR
Homo sapiens [11] = species on record: Homo sapiens; assay: Selectivity ratio of IC50 for human FYN to IC50 for human mTOR
Homo sapiens [12] = species on record: Homo sapiens; assay: Selectivity ratio of IC50 for human YES to IC50 for human mTOR
Homo sapiens [13] = species on record: Homo sapiens; assay: Selectivity ratio of IC50 for human DDR1 to IC50 for human mTOR
Homo sapiens [14] = species on record: Homo sapiens; assay: Selectivity ratio of IC50 for human PDGFRalpha to IC50 for human mTOR

- Ratio IC50 (Homo sapiens [1]): > 65
- Ratio IC50 (Homo sapiens [2]): > 65
- Ratio IC50 (Homo sapiens [3]): > 65
- Ratio IC50 (Homo sapiens [4]): > 65
- Ratio IC50 (Homo sapiens [5]): > 20
- Ratio IC50 (Homo sapiens [6]): > 65
- Ratio IC50 (Homo sapiens [7]): > 65
- Ratio IC50 (Homo sapiens [8]): > 65
- Ratio IC50 (Homo sapiens [9]): > 65
- Ratio IC50 (Homo sapiens [10]): > 65
- Ratio IC50 (Homo sapiens [11]): > 65
- Ratio IC50 (Homo sapiens [12]): > 65
- Ratio IC50 (Homo sapiens [13]): > 65
- Ratio IC50 (Homo sapiens [14]): > 65
SMILES: CCOC(Cn1nc(-c2ccc3oc(N)nc3c2)c2c(N)ncnc21)OCC
